Data as given in ChEMBL document CHEMBL4616704, “Discovery of an Atropisomeric PI3Kβ Selective Inhibitor through Optimization of the Hinge Binding Motif” (ACS Med Chem Lett, 2020).

Amino acid sequences for entries named in this document (tags omitted). A change or cut given only in a name is not applied to a line headed by its entry.
UniProt P42338: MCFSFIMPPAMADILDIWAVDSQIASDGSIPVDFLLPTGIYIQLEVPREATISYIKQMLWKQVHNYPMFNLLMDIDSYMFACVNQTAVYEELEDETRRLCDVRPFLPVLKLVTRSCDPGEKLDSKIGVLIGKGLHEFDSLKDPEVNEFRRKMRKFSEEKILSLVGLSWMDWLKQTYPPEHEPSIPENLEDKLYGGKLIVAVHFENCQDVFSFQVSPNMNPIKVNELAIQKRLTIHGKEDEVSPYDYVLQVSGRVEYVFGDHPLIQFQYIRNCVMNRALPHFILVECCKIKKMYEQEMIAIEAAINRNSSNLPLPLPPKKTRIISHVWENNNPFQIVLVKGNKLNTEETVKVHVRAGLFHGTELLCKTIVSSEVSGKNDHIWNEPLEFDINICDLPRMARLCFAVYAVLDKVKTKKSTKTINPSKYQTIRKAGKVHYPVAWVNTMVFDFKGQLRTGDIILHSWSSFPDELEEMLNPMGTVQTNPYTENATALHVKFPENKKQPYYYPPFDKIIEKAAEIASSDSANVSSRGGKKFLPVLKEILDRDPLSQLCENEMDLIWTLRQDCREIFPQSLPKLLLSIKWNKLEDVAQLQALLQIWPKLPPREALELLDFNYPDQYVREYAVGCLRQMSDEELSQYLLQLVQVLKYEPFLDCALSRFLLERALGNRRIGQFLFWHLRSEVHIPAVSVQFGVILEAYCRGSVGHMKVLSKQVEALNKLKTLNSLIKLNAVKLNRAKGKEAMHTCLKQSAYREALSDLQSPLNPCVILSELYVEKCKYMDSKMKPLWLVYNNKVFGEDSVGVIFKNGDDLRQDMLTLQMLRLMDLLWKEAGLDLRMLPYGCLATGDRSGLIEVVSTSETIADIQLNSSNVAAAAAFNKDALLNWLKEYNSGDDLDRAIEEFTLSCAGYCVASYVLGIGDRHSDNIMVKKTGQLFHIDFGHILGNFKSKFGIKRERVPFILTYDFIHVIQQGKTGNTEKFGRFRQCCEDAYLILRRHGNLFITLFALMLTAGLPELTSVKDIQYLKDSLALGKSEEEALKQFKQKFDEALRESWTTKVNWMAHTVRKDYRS

Biological target: PI3K p110 beta/p85 alpha (Homo sapiens, UniProt P42338)
Assay: Inhibition of recombinant human full-length N-terminal His6-tagged p110beta/human recombinant full-length untagged p85alpha expressed in baculovirus infected Sf21 insect cells using PIP2 as substrate after 30 mins in presence of ATP at 2xKm concentration by TR-FRET assay
Method in brief: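 Class I PI3K isoforms assayed in vitro for kinase inhibition with ATP at 2Km steady-state concentration; IC50 values averaged over at least 2 determinations.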

Question: For Cc1cc(C(C)Nc2ccccc2)c2nc(N3CCOCC3)cc(=O)n2c1 (stereo unspecified), which IC50 is on record?
Answer: 63 nM
